This is an account of results in publication PMC6222329 (Molecules : A Journal of Synthetic Chemistry and Natural …, 2018).

Protein sequences, listed by entry. Tags and fused reporters are not part of them. Residues count along the entry.
UniProt O42275, 24-633: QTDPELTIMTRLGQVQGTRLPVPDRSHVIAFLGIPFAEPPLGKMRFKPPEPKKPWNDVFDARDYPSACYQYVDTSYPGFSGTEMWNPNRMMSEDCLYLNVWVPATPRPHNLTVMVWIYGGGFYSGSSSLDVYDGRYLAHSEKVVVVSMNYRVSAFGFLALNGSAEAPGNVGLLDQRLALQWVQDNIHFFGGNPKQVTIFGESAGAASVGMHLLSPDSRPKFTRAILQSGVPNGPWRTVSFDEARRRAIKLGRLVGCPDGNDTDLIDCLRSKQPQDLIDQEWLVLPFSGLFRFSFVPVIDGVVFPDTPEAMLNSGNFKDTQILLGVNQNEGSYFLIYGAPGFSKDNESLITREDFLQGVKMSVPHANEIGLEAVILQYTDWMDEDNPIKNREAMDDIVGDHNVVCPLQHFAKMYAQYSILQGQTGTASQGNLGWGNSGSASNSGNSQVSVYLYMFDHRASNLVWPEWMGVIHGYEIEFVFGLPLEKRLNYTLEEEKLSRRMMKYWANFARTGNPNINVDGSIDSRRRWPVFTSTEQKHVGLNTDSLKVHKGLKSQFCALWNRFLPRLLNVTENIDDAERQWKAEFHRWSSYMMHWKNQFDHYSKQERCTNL
UniProt P22303, 32-614: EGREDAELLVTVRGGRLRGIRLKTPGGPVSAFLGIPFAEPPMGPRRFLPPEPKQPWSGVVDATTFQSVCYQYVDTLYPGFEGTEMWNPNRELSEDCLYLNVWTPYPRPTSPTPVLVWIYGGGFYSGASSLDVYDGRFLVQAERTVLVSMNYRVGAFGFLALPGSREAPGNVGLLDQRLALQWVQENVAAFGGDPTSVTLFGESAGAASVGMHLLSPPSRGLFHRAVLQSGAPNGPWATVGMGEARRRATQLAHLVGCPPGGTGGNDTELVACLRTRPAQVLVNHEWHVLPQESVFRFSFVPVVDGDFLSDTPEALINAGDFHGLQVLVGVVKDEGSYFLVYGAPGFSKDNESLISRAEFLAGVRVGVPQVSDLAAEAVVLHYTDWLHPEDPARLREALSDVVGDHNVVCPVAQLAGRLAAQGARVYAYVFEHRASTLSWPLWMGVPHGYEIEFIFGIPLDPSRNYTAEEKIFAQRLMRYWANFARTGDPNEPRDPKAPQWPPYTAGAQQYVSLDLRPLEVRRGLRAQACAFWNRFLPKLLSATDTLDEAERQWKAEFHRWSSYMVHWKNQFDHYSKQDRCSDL

In assay [1] the target is T1, AChE (Electrophorus electricus) (Electrophorus electricus, UniProt O42275).
T1 construct: purchased Sigma-Aldrich (Steinheim, Germany)
The assay can be described thus: AChE inhibition, Ellman's method. The assay is classed as biochemical. Background: Ellman's reagent forms a yellow product with free thiols.

The next assay has as its target T2, AChE (Human) (Homo sapiens, UniProt P22303).
T2 construct: purchased Sigma-Aldrich (Steinheim, Germany)
The assay can be described thus: AChE inhibition, Ellman's method. The assay is classed as biochemical.

Broadly, the IC50 is the concentration that gives 50% inhibition. Read a high IC50 as weaker potency in that assay. `Nc1c2ccccc2nc2ccccc12` [Aminoacridine, 9-aminoacridine, reference compound]: the IC50 stood at 1750 ± 72 nM in assay [1] and 1340 ± 47 nM against AChE (Human).
